# Like-named read-outs stand apart in the source and are kept apart here.
# Amino acid sequences for entries named in this document (tags omitted). A change or cut given only in a name is not applied to a line headed by its entry.
# UniProt Q27783: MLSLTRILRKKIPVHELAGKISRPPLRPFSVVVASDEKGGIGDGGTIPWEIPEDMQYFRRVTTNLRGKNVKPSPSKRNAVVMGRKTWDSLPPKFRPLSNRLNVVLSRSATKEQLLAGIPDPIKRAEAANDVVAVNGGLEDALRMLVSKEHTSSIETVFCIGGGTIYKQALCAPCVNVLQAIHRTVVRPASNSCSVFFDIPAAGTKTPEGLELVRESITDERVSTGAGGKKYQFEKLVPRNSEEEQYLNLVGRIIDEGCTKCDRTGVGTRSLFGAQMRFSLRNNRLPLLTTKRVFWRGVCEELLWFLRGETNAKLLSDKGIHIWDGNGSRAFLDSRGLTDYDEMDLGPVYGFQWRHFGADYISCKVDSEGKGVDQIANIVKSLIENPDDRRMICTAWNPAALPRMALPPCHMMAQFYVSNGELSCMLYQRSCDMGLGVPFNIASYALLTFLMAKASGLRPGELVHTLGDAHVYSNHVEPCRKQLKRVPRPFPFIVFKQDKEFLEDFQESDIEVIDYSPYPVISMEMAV
# How the values were obtained:
# TbDHFR [1] = molecular target: T1, TbDHFR (Trypanosoma brucei brucei, UniProt Q27783); conditions: read-out: TbDHFR Ki; cited from earlier work
# in vitro = conditions: human, THP-1-derived macrophages (PMA-differentiated)
# TbPTR1 = molecular target: T2, TbPTR1 (Trypanosoma brucei brucei, UniProt O76290); experiment: TbPTR1 inhibition assay
# T2 sequence (O76290 1-268): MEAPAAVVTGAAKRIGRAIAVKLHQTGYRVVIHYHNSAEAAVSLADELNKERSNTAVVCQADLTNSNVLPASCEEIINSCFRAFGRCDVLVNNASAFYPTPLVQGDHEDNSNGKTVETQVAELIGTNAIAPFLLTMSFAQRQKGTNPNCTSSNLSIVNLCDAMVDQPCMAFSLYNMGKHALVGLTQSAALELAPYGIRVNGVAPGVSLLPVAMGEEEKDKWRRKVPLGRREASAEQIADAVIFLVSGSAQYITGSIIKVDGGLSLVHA
# TbDHFR [2] = molecular target: T1, TbDHFR; experiment: biochemical
# [3] = system: T. brucei bloodstream forms; experiment: Activity toward T. brucei bloodstream forms; conditions: for SI CC50/EC50 folate deficiency: THP-1 CC50 / T. brucei EC50, folate deficiency medium
# TbDHFR [4] = molecular target: T1, TbDHFR; conditions: for selectivity KiTbPTR1/KiTbDHFR: ratio of Ki TbPTR1 vs TbDHFR; for species selectivity KihDHFR/KiTbDHFR: ratio of Ki hDHFR vs TbDHFR
# TbTS = TbTS (Trypanosoma brucei brucei, UniProt Q27783); conditions: ratio of Ki hTS vs TbTS
SMILES,Ki (TbDHFR [1]) [µM],CC50 at 72 h (in vitro) [µM],Ki (TbPTR1) [µM],Ki (TbDHFR [2]) [µM],"SI CC50/EC50 ([3]; THP-1 CC50 / T. brucei EC50, complete medium)",SI CC50/EC50 folate deficiency [3],selectivity KiTbPTR1/KiTbDHFR (TbDHFR [4]),species selectivity KihDHFR/KiTbDHFR (TbDHFR [4]),species selectivity KihTS/KiTbTS (TbTS)
"CC1(C)N=C(N)N=C(N)N1c1ccc(Cl)cc1 [Cyc, cycloguanil, reference compound]",0.256,221,,,,,,,
"CCc1nc(N)nc(N)c1-c1ccc(Cl)cc1 [Pyr, pyrimethamine, reference compound]",,105,0.016,0.038,,,,,
"N=C(N)Nc1nc2cc(Cl)c(Cl)cc2[nH]1 [2c, 5,6-Dichloro-2-guanidinobenzimidazole]",,95.3,,,12.2,14.6,4.9,2.3,>9.9
"N=C(N)Nc1nc2ccccc2[nH]1 [2a, 2-Guanidinobenzimidazole]",,> 100,,,,,459,76,>21
"Cc1cc2nc(NC(=N)N)[nH]c2cc1C [2g, 5,6-Dimethyl-2-guanidinobenzimidazole]",,> 100,,,,7.2,6000,394,>27
"N=C(N)Nc1nc2cc(Cl)cc(Cl)c2[nH]1 [2d, 4,6-Dichloro-2-guanidinobenzimidazole]",,> 100,,,,16.8,44,39,>25

# From paper PMC11537224 (ACS Infectious Diseases, 2024)
